Source: patent US11680043B2, “Pharmaceutically acceptable salts of psilocin and uses thereof” (priority 2021, dated 2023)
Several values for one entry are separate records, joined by “and”; a condition that tells them apart may be missing. Equal entries are not always repeated.

What was measured:
[1] = Solubility of psilocin salts in saline
[2] = GVS (hygroscopicity); settings: between 0 and 80% RH
[3] = Saline, updated summary (Table 10)
[4] = pH of saturated solution in saline (Table 9)
[5] = saline, 25° C., 750 rpm, maximum anticipated concentration 10 mg/mL of free base (Table 9)

Psilocin succinate [Psilocin succinate SUC Pattern 3]
pH at 5 hrs [1, 3]: 6.4 and 6.5 | Solubility in Saline ([1]; Table 4 summary): >27 mg/mL | pH at 5 hrs [1, 4]: 6.5 and 6.4 | GVS: mass change [2]: Only 1.0% mass

Psilocin tartrate
Appearance at 5 hrs [1, 3]: Clear solution | pH at 5 hrs [1, 3]: 3.5 | pH at 5 hrs [1, 4]: 3.4 | Appearance at 5 hrs [1, 5]: Clear solution

Psilocin tartrate [Psilocin tartrate TAR Pattern 1]
pH at 5 hrs [1, 3]: 3.5 | pH at 5 hrs [1, 4]: 3.4 | Appearance at 5 hrs [1, 5]: Clear solution
